Experimental findings from US11123292B2, “Use of biocompatible microdroplets for the treatment of atherosclerosis, heart disease and stroke” (priority 2014, dated 2021) are described below.

Molecules are shown by their SMILES.

This experiment can be described thus: Water insoluble solvents tested for dissolving cholesterol / arterial plaque. The following applies: medium not stated.

With `CCCCCCCC/C=C\CCCCCCCC(=O)O` [oleic acid], the “result of solvent testing (dissolving cholesterol)” value is recorded as “very promising results”.
